From article PMC10586543 (Advanced functional materials, 2023) come the findings set out here.

The nature of data set [1]: Urine accumulation at 1 h post-injection in uninjured mice. In kind it is in vivo, mouse (C57BL/6J). The following applies: i.v., 50 nmol kg^−1, ELISA, n = 4. In general terms: In an ELISA, binding on a coated surface is turned into a signal by an enzyme label.
Data set [2] is described as follows: Blood circulation half-life in uninjured mice. In kind it is in vivo, mouse (C57BL/6J). The following applies: i.v., 50 nmol kg^−1, ELISA, %ID.

For “Biotin-GGSGG-K(5FAM)-QEVYGAMP-K(CPQ2)-C-NH2 [calpain substrate peptide]”, the “peptide recovered from urine at 1 h post-injection” value in data set [1] is “greater majority of peptide was recovered from the urine”. Also, the “peptide remaining in blood circulation at 1 h post-injection” value in data set [2] is listed as ~ 5%.
